# Source: patent US9725465B2, “Biaryl acetamide compounds and methods of use thereof” (Ambit Biosciences Corporation, priority 2013, dated 2017)
# Columns and labels:
# FLT3-ITD-D835V = FLT3-ITD-D835V (Homo sapiens (Human), UniProt P36888, D835V/INS600HVDFREYEYD); experiment: pFLT3 MSD assay, Ba/F3 FLT3-ITD-D835V; assay type: cell-based; conditions: Ba/F3 FLT3-ITD-D835V cells, 2 hours, read-out: BaF3-FLT3-ITD-D835V pFlt3 IC50
# FLT3-ITD-F691L = FLT3-ITD-F691L (Homo sapiens (Human), UniProt P36888, F691L/INS600HVDFREYEYD); experiment: pFLT3 MSD assay, Ba/F3 FLT3-ITD-F691L; assay type: cell-based; conditions: Ba/F3 FLT3-ITD-F691L cells, 2 hours, read-out: BaF3-FLT3-ITD-F691L pFlt3 IC50
SMILES,IC50 (FLT3-ITD-D835V) [nM],IC50 (FLT3-ITD-F691L) [nM]
"CN(C)C(=O)COc1cc2ncc(-c3ccc(CC(=O)Nc4cc(C5(C(F)(F)F)CC5)on4)c(F)c3)nc2cc1OCC(=O)N(C)C [Example 154, 2-[4-[6,7-bis[2-(dimethylamino)-2-oxo-ethoxy]quinoxalin-2-yl]-2-fluoro-phenyl]-N-[5-[1-(trifluoromethyl)cyclo-propyl]isoxazol-3-yl]acetamide]",> 50,> 50
"COc1cc2ncc(-c3ccc(CC(=O)Nc4cc(C(C)(C)C(F)(F)F)on4)c(F)c3)c(Cl)c2cc1OC [Example 138, 2-[4-(4-chloro-6,7-dimethoxy-3-quinolyl)-2-fluoro-phenyl]-N-[5-(2,2,2-trifluoro-1,1-dimethyl-ethyl)isoxazol-3-yl]acetamide]",> 50,20 to 50
"O=C(Cc1ccc(-c2cnc3cc4c(cc3n2)OCCO4)cc1F)Nc1cc(C2(C(F)(F)F)CC2)on1 [Example 76, 2-(4-(2,3-dihydro-[1,4]dioxino[2,3-g]quinoxalin-7-yl)-2-fluorophenyl)-N-(5-(1-(trifluoromethyl)cyclopropyl)isoxazol-3-yl)acetamide]",20 to 50,10 to 20
"O=C(Cc1ccc(-c2cnc3[nH]c(C(=O)O)cc3c2)cc1F)Nc1cc(C2(C(F)(F)F)CC2)on1 [Example 106, 5-[3-fluoro-4-[2-oxo-2-[[5-[1-(trifluoromethyl)cyclo-propyl]isoxazol-3-yl]amino]ethyl]phenyl]-1H-pyrrolo[2,3-b]pyridine-2-carboxylic acid]",> 50,> 50
"COc1cc2nc(O)c(-c3ccc(CC(=O)Nc4cc(C5(C(F)(F)F)CC5)on4)c(F)c3)nc2cc1OC [Example 152, 2-[4-(6,7-dimethoxy-3-hydroxy-quinoxalin-2-yl)-2-fluoro-phenyl]-N-[5-[1-(trifluoromethyl)cyclo-propyl]isoxazol-3-yl]acetamide]",> 50,> 50
"COc1cc2ncc(-c3ccc(CC(=O)Nc4cc(C5(C(F)(F)F)CC5)on4)c(F)c3)nc2cc1OCc1ccccc1 [Example 156, 2-[4-(7-benzyloxy-6-methoxy-quinoxalin-2-yl)-2-fluoro-phenyl]-N-[5-[1-(trifluoromethyl)cyclo-propyl]isoxazol-3-yl]acetamide]",20 to 50,20 to 50
"CNCc1c[nH]c2ncc(-c3ccc(CC(=O)Nc4cc(C(C)(C)C)on4)cc3)cc12 [Example 54, N-(5-(tert-butyl)isoxazol-3-yl)-2-(4-(3-((methylamino)methyl)-1H-pyrrolo[2,3-b]pyridin-5-yl)phenyl)acetamide]",> 50,> 50
"O=C(Cc1ccc(-c2cnc3sccc3c2)cc1)Nc1cc(C2(C(F)(F)F)CC2)on1 [Example 19, 2-(4-(thieno[2,3-b]pyridin-5-yl)phenyl)-N-(5-(1-(trifluoromethyl)cyclopropyl)isoxazol-3-yl)acetamide]",> 50,20 to 50

# Results, then the compound that gave them:
IC50 (FLT3-ITD-D835V) [nM],IC50 (FLT3-ITD-F691L) [nM],SMILES
< 10,< 10,"CS(=O)(=O)CCNC(=O)c1cc2cc(-c3ccc(CC(=O)Nc4cc(C5(C(F)(F)F)CC5)on4)c(F)c3)cnc2[nH]1 [Example 107, 5-[3-fluoro-4-[2-oxo-2-[[5-[1-(trifluoromethyl)cyclo-propyl]isoxazol-3-yl]amino]ethyl]phenyl]-N-(2-methylsulfonylethyl)-1H-pyrrolo[2,3-b]pyridine-2-carboxamide]"
< 10,< 10,"COCCOc1cc2ncc(-c3ccc(CC(=O)Nc4cc(C(C)(C)C)nn4C)c(F)c3)nc2cc1OC [Example 162, N-(5-tert-butyl-2-methyl-pyrazol-3-yl)-2-[2-fluoro-4-[7-methoxy-6-(2-methoxyethoxy)quinoxalin-2-yl]phenyl]acetamide]"
< 10,< 10,"COc1cc2nc(-c3ccc(CC(=O)Nc4cc(C5(C(F)(F)F)CC5)on4)c(F)c3)cnc2cc1OCCN=[N+]=[N-] [Example 166, 2-[4-[6-(2-azidoethoxy)-7-methoxy-quinoxalin-2-yl]-2-fluoro-phenyl]-N-[5-[1-(trifluoromethyl)cyclo-propyl]isoxazol-3-yl]acetamide]"
< 10,< 10,"COc1cc2nc(N)c(-c3ccc(CC(=O)Nc4cc(C5(C(F)(F)F)CC5)on4)c(F)c3)nc2cc1OC [Example 123, 2-[4-(3-amino-6,7-dimethoxy-quinoxalin-2-yl)-2-fluoro-phenyl]-N-[5-[1-(trifluoro-methyl)cyclopropyl]isoxazol-3-yl]acetamide]"
10 to 20,< 10,"CN(C)C(=O)c1n[nH]c2ncc(-c3ccc(CC(=O)Nc4cc(C(C)(C)C)on4)cc3)cc12 [Example 45, 5-(4-(2-((5-(tert-butyl)isoxazol-3-yl)amino)-2-oxoethyl)phenyl)-N,N-dimethyl-1H-pyrazolo[3,4-b]pyridine-3-carboxamide]"
< 10,< 10,"Cn1cc(-c2n[nH]c3ncc(-c4ccc(CC(=O)Nc5cc(C(C)(C)C)on5)cc4)cc23)cn1 [Example 109, N-(5-tert-butylisoxazol-3-yl)-2-[4-[3-(1-methylpyrazol-4-yl)-1H-pyrazolo[3,4-b]pyridin-5-yl]phenyl]acetamide]"
< 10,< 10,"COc1ccc2ncc(-c3ccc(CC(=O)Nc4cc(C5(C(F)(F)F)CC5)on4)c(F)c3)nc2n1 [Example 155, 2-[2-fluoro-4-(6-methoxypyrido[2,3-b]pyrazin-3-yl)phenyl]-N-[5-[1-(trifluoromethyl)cyclo-propyl]isoxazol-3-yl]acetamide OR 2-[2-fluoro-4-(6-methoxypyrido[2,3-b]pyrazin-2-yl)phenyl]-N-[5-[1-(trifluoromethyl)cyclo-propyl]isoxazol-3-yl]acetamide]"
< 10,< 10,"CC(C)(C)c1cc(NC(=O)Cc2ccc(-c3cnc4[nH]ccc4c3)cc2F)no1 [Example 27, N-(5-(tert-butyl)isoxazol-3-yl)-2-(2-fluoro-4-(1H-pyrrolo[2,3-b]pyridin-5-yl)phenyl)acetamide]"
< 10,< 10,"O=C(Cc1ccc(-c2cnc3cc(OCCO)c(OCCO)cc3n2)cc1F)Nc1cc(C2(C(F)(F)F)CC2)on1 [Example 75, 2-(4-(6,7-bis(2-hydroxyethoxy)quinoxalin-2-yl)-2-fluorophenyl)-N-(5-(1-(trifluoromethyl)cyclopropyl)isoxazol-3-yl)acetamide]"
< 10,< 10,"COc1cc2ncc(-c3ccc(CC(=O)Nc4cc(C(C)(C)C)nn4-c4ccccc4)c(F)c3)nc2cc1OC [Example 140, N-(5-tert-butyl-2-phenyl-pyrazol-3-yl)-2-[4-(6,7-dimethoxyquinoxalin-2-yl)-2-fluoro-phenyl]acetamide]"
< 10,< 10,"COc1cc2nc(-c3ccc(CC(=O)Nc4cc(C5(C(F)(F)F)CC5)on4)c(F)c3)cnc2cc1OCCNC(C)=O [Example 168, 2-[4-[6-(2-acetamidoethoxy)-7-methoxy-quinoxalin-2-yl]-2-fluoro-phenyl]-N-[5-[1-(trifluoromethyl)cyclo-propyl]isoxazol-3-yl]acetamide]"
< 10,< 10,"COc1cc2nc(-c3ccc(CC(=O)Nc4cc(C5(C(F)(F)F)CC5)on4)c(F)c3)cnc2cc1O [Example 78, 2-(2-fluoro-4-(6-hydroxy-7-methoxyquinoxalin-2-yl)phenyl)-N-(5-(1-(trifluoromethyl)cyclopropyl)isoxazol-3-yl)acetamide]"
